This passage reports fold change (FC) results from ChEMBL document CHEMBL4813983, “Addition of hydrophobic side chains improve the apoptosis inducibility of the human glyoxalase I inhibitor, TLSC702” (Bioorg Med Chem Lett, 2021).

Chains of the proteins cited; added tags and fusions are not shown. Lines headed by an entry give the natural chain unless they say otherwise; changes in a name come on top.
UniProt Q04760: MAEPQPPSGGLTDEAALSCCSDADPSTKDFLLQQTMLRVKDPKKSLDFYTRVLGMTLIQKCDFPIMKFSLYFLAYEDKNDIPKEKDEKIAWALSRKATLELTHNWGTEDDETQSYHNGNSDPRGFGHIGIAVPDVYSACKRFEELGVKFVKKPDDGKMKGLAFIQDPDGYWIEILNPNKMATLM

This test addresses Lactoylglutathione lyase (Homo sapiens, UniProt Q04760). Nature of the test: Inhibition of glyoxylase-1 in human HL60 cells assessed as increase in methylglyoxal level in culture medium at 200 uM measured after 24 hrs by HPLC-UV analysis relative to control. The class given is cell-based. The conditions noted are these: HL-60.

Molecules are shown by their SMILES.

For the compound `CCOc1cc(/C=C(\CC(=O)O)c2nc3ccccc3[nH]2)ccc1OCC(=O)Nc1ccccc1`, the fold change (FC) amounted to 6.
